Here are results for 19 molecules from ChEMBL document CHEMBL4251749.

The chains behind the UniProt entries cited, without tags or fusion partners. Where a name states a change or a piece, a line headed by the entry shows the natural chain unless it says otherwise.
UniProt O42275: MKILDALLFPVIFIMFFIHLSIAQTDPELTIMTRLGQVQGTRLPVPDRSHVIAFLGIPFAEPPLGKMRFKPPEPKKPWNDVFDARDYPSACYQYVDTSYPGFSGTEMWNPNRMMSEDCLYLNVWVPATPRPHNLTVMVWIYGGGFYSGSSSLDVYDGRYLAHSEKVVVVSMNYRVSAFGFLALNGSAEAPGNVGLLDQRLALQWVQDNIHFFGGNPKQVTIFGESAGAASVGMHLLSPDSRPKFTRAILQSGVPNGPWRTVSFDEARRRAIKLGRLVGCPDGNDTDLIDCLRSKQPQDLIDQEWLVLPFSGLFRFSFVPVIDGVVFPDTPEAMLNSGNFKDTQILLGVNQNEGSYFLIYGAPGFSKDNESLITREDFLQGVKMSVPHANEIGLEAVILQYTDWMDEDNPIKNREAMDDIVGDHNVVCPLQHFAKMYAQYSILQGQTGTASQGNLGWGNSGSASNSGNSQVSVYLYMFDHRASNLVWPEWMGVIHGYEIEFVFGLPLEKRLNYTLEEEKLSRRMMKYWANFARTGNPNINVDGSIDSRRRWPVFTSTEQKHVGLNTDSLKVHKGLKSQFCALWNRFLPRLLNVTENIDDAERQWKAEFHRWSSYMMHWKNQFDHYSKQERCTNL
UniProt P22303: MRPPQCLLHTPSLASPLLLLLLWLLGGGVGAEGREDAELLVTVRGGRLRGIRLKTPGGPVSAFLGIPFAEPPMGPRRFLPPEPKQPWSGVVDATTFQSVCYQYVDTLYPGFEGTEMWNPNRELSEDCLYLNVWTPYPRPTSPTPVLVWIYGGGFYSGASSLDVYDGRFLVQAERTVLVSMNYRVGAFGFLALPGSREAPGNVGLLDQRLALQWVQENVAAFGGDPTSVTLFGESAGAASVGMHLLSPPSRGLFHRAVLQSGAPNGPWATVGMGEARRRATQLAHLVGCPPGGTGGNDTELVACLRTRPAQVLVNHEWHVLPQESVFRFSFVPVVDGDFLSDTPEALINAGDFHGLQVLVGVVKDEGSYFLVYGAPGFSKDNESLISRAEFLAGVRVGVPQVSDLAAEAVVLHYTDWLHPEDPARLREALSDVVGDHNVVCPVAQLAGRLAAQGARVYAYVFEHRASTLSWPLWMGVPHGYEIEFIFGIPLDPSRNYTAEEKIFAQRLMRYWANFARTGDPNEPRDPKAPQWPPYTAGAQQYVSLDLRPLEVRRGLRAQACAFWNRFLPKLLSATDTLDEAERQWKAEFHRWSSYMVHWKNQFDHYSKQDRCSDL

Calls of active or inactive are those of the source. The rule behind the calls is not given here.

Assay [1] has as its target Acetylcholinesterase (Electrophorus electricus) (UniProt O42275). The assay is described as follows: Reactivation of isopropyl phosphate-aged electric eel AChE assessed as enzyme reactivation by measuring residual activity at 0.2 to 4 mM using acetylthiocholine as substrate after 1 day in presence of NH4F and 2-PAM at pH 8 and at 37 degC by Ellman's assay. For orientation: DTNB colorimetry detects thiols as they appear.

Assay [2] shares this target. The assay is described as follows: Reactivation of methylphosphonate-aged electric eel AChE assessed as enzyme reactivation by measuring residual activity at 0.2 to 4 mM using acetylthiocholine as substrate after 1 day in presence of NH4F and 2-PAM at pH 8 and at 37 degC by Ellman's assay.
For assay [3] the target is unchanged. The assay is described as follows: Reactivation of EMP-inhibited electric eel AChE assessed as enzyme reactivation by measuring residual activity at 0.4 mM at pH 8 after 1 hr using acetylthiocholine as substrate by Ellman's assay relative to control.
Assay [4] shares this target. The assay is described as follows: Reactivation of EMP-inhibited electric eel AChE assessed as enzyme reactivation by measuring residual activity at 4 mM at pH 8 after 24 hrs using acetylthiocholine as substrate by Ellman's assay relative to control.
The target is the same in assay [5]. The assay is described as follows: Resurrection of isopropyl phosphate-aged electric eel AChE assessed as enzyme reactivation rate by measuring residual activity at 4 mM using acetylthiocholine as substrate at pH 8 after 4 days by Ellman's assay relative to control.
For assay [6] the target is unchanged. The assay is described as follows: Resurrection of methylphosphonate-aged electric eel AChE assessed as realkylated enzyme level at 100 mM in presence of trypsin by LC-MS/MS based bottom-up proteomics analysis (reference value: 0%).
For assay [7] the target is unchanged. The assay is described as follows: Resurrection of isopropyl phosphate-aged electric eel AChE assessed as enzyme reactivation by measuring residual activity at 4 mM using acetylthiocholine as substrate at pH 8 after 4 days by Ellman's assay relative to control.
Assay [8] shares this target. The assay is described as follows: Resurrection of methylphosphonate-aged electric eel AChE assessed as enzyme reactivation rate by measuring residual activity at 4 mM using acetylthiocholine as substrate at pH 8 after 4 days by Ellman's assay relative to control.
The target is the same in assay [9]. The assay is described as follows: Resurrection of isopropyl phosphate-aged electric eel AChE assessed as enzyme reactivation by measuring residual activity at 4 mM using acetylthiocholine as substrate at pH 9 after 1 day by Ellman's assay relative to control.
Assay [10] shares this target. The assay is described as follows: Resurrection of isopropyl phosphate-aged electric eel AChE assessed as aged enzyme level at 100 mM in presence of trypsin by LC-MS/MS based bottom-up proteomics analysis (reference value: 100%).
Assay [11] has as its target Acetylcholinesterase (Homo sapiens) (UniProt P22303). The assay is described as follows: Resurrection of isopropyl phosphate-aged human recombinant AChE assessed as enzyme reactivation by measuring residual activity at 4 mM at pH 9 using acetylthiocholine as substrate after 7 days by Ellman's assay relative to control.
Assay [12] concerns the target Acetylcholinesterase (Electrophorus electricus) (UniProt O42275). The assay is described as follows: Resurrection of methylphosphonate-aged electric eel AChE assessed as enzyme reactivation by measuring residual activity at 4 mM using acetylthiocholine as substrate at pH 8 after 4 days by Ellman's assay relative to control.
Assay [13] has the same target. The assay is described as follows: Resurrection of methylphosphonate-aged electric eel AChE assessed as aged enzyme level at 100 mM in presence of trypsin by LC-MS/MS based bottom-up proteomics analysis (reference value: 100%).
The target of assay [14] is Acetylcholinesterase (Homo sapiens) (UniProt P22303). The assay is described as follows: Resurrection of isopropyl phosphate-aged human recombinant AChE assessed as enzyme reactivation rate by measuring residual activity at 4 mM at pH 9 using acetylthiocholine as substrate after 7 days by Ellman's assay relative to control.
Assay [15] deals with Acetylcholinesterase (Electrophorus electricus) (UniProt O42275). The assay is described as follows: Resurrection of methylphosphonate-aged electric eel AChE assessed as native enzyme level at 100 mM in presence of trypsin by LC-MS/MS based bottom-up proteomics analysis (reference value: 0%).
Assay [16] shares this target. The assay is described as follows: Resurrection of isopropyl phosphate-aged electric eel AChE assessed as native enzyme level at 100 mM in presence of trypsin by LC-MS/MS based bottom-up proteomics analysis (reference value: 0%).
The target is the same in assay [17]. The assay is described as follows: Resurrection of isopropyl phosphate-aged electric eel AChE assessed as realkylated enzyme level at 100 mM in presence of trypsin by LC-MS/MS based bottom-up proteomics analysis (reference value: 0%).
Assay [18] shares this target. The assay is described as follows: Resurrection of methylphosphonate-aged electric eel AChE assessed as enzyme reactivation by measuring residual activity at 4 mM using acetylthiocholine as substrate at pH 9 after 1 day by Ellman's assay relative to control.

In the case of `CC(C)CN(C)Cc1ncccc1O`, the result in [1] and in assay [2] was inactive.
For `Oc1cccnc1`, the outcome in assay [3] was Active.
With `Oc1cnc2ccccc2c1CN1CCCC1`, the Activity in [4] lay within 64 to 80%. Besides, the result in assay [1] was Active. Further, the outcome in assay [2] was inactive.
`Oc1cccnc1CN1CCCC1`: the Activity in assay [5] was 0.2 %/hr; in assay [6] it was 0%; in assay [7] it was 20.4%; in assay [4], 64 to 80%; in [8], 0.32 %/hr; in assay [10], 84.6%. Moreover, the Activity in [11] stood at 18%; in assay [12], 32.7%; in assay [13], 97.9%; in [14], 2.5 %/hr; in assay [15], 2.1%; in assay [16], 15.4%. Further, the results for the Activity in [17] and in [18] were 0% and 20%, respectively. The outcome in assay [9], in [1] and in assay [2] was Active.
`c1ccc(CN2CCCC2)nc1`: the result in assay [1] and in assay [2] was inactive.
As to `Oc1cccnc1CN1CCNCC1`, the outcome in [1] and in assay [2] was inactive.
With `CCN(CC)Cc1ncccc1O`, the result in assay [1] and in assay [2] was inactive.
`COc1cc(CN2CCCC2)ccc1O`: the outcome in assay [1] and in assay [2] was inactive.
Take `Oc1ccc(CN2CCCC2)cn1`: the outcome in assay [1] and in [2] was inactive.
In the case of `CC(C)N(C)Cc1ncccc1O`, the outcome in assay [1] and in [2] was inactive.
Regarding `CCCN(C)Cc1ncccc1O`, the result in assay [1] and in assay [2] was inactive.
Consider `Oc1cc(CN2CCCC2)c2ccccc2n1`, for which the result in assay [1] and in assay [2] was inactive.
With `CCN(C)Cc1ncccc1O`, the Activity in assay [4] fell in the range of 64 to 80%. Further, the outcome in assay [1] and in assay [2] was Active.
Turning to `Oc1cccnc1CN1CCC(F)(F)C1`, the result in assay [1] and in assay [2] was inactive.
As for `Oc1cccnc1CN1CCCCC1`, the result in [1] and in assay [2] was inactive.
With `Oc1cccnc1CN1CCOCC1`, the result in assay [1] and in assay [2] was inactive.
As to `Oc1nc2ccccc2cc1CN1CCCC1`, the outcome in assay [1] and in assay [2] was inactive.
Consider `Oc1cccnc1CN1CCN(Cc2ncccc2O)CC1`, for which the outcome in assay [1] and in [2] was inactive.
For `c1cc2c(cc1CN1CCCC1)OCO2`, the outcome in [1] and in assay [2] was inactive.
